From patent publication US12637435B2, “Nitrogen-containing heterocyclic compound or salt thereof, use thereof, and intermediate thereof” (FUJIFILM Corporation, priority 2020, dated 2026)

Sequences of proteins named here, by UniProt entry; tags and fusion partners are left off. Residues count along the entry.
UniProt Q02127, 31-395 limits assumed: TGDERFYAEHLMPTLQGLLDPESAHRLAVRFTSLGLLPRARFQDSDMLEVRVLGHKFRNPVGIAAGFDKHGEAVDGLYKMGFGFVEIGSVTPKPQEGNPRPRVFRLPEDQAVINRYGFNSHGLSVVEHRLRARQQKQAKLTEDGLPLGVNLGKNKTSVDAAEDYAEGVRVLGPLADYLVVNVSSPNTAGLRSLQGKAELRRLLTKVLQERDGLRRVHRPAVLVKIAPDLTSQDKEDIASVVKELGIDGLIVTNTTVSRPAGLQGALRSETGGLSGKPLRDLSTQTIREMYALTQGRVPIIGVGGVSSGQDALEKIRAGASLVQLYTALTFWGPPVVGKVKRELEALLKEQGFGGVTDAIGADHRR

Legend:
[1] = test system: human myeloid leukemia cell line HL60; experiment: Cell growth test, HL60 (CellTiter-Glo); details: read-out: Cell growth inhibitory effect (GI50); HL60 cells, 3 days, CellTiter-Glo luminescence
Protocol: The cell growth test was carried out using the human myeloid leukemia cell line HL60 (available from ATCC, CRL-240). As a culture medium of HL60 cells, RPMI 1640 (available from FUJIFILM Wako Pure Chemical Corporation, 189-02025) supplemented with 10% fetal bovine serum (available from Thermo Fisher Scientific, Inc., 10437-028), and 1% penicillin-streptomycin (10,000 U/mL, available from Thermo Fisher Scientific, Inc., 15140-122) was used. HL60 cells were seeded on a 384-well plate (available from Corning Inc., 4588) at a cell density of 1×10^3 cells/20 μL/well. After culturing overnight, 5 μL of the test compound having a predetermined concentration was added, and 3 days later, 25 μL of CellTiter-Glo (registered trademark) Luminescent Cell Viability Assay (available from Promega Corporation, G7573) was added, and then the amount of luminescence was measured using an EnVision plate reader (available from PerkinElmer, Inc.). Since the amount of luminescence is proportional to the intracellular concentration of adenosine triphosphate (ATP), the amount of luminescence was used as an indicator of the number of viable cells. The growth inhibitory concentration for each test compound concentration was calculated by the following expression.
(§1) The growth inhibition rate at each test compound concentration was determined, and the 50% growth inhibitory concentration [GI50 (nmol/L)] was calculated using XLfit. Growth inhibition rate (%)=(amount of luminescence in test compound-added well)/(amount of luminescence in DMSO-added well)×100
The abbreviations in the table have the following meanings. • A: GI50 value<100 nmol/L • B: 100 nmol/L≤GI50 value<1,000 nmol/L • C: 1,000 nmol/L≤GI50 value

recombinant human DHODH = recombinant human DHODH (Homo sapiens, UniProt Q02127); experiment: DHODH enzyme reaction inhibition test (DCIP-coupled assay); details: read-out: Enzyme reaction inhibitory effect (IC50); recombinant human DHODH 0.175 μg/mL, DCIP absorbance 600 nm, 50 minutes, pH 8.0
Protocol: The DHODH enzyme assay was carried out with reference to “Benjamin Bader, Wolfgang Knecht, Markus Fries, and Monika Loffler, Expression, Purification, and Characterization of Histidine-Tagged Rat and Human Flavoenzyme Dihydroorotate Dehydrogenase, Protein Expression and Purification, 1998, 13, 414-422.”
The DHODH activity was evaluated using an enzyme assay system that is coupled with an assay in which a blue coloring agent 2,6-dichlorophenolindophenol (DCIP, available from MP Biomedicals, LLC, MP150118) is quenched. Purified recombinant human DHODH (DHODH, 31-395aa, Human, His tag, E. coli, ATGP1615) was purchased from ATGen Co. Ltd. The enzyme assay was carried out in a 384-well plate using a buffer solution containing 100 mmol/L Hepes (available from Dojindo Laboratories, 342-01375), 400 mmol/L NaCl (available from FUJIFILM Wako Pure Chemical Corporation, 191-01665), 10% Glycerol (available from FUJIFILM Wako Pure Chemical Corporation, 075-00616), 0.05% Triton X-100 (available from Sigma-Aldrich Co., LLC, T8787-100ML), 0.2 mmol/L Ubiquinone-10 (available from FUJIFILM Wako Pure Chemical Corporation, 216-00761), 0.1 mmol/L DHO (L-dihydroorotic acid, available from Sigma-Aldrich Co., LLC, D7128), 0.5% DMSO (dimethylsulfoxide, available from FUJIFILM Wako Pure Chemical Corporation, 047-29353), 0.175 μg/mL DHODH, and 0.12 mmol/L DCIP and having a pH adjusted to 8.0 by adding 5 mol/L potassium hydroxide (available from FUJIFILM Wako Pure Chemical Corporation, 168-21815). A test compound with a predetermined concentration was added using Biomek NX (available from Beckman Coulter Inc.), and the enzyme reaction was started by adding the substrate. The enzyme activity was assessed by measuring the decrease in DCIP absorbance (600 nm) for 50 minutes using an EnVision plate-reading spectrophotometer (available from PerkinElmer, Inc.).
as §1, with “enzyme reaction” for “growth”, “enzyme reaction inhibition” for “growth inhibitory”, “[IC50” for “[GI50”, “Enzyme reaction” for “Growth”
The abbreviations in the table have the following meanings. • A: IC50 value<10 nmol/L • B: 10 nmol/L≤IC50 value<100 nmol/L • C: 100 nmol/L≤IC50 value

HL60 subcutaneous tumor = experiment: In vivo drug efficacy test in cancer-bearing mouse model with subcutaneous transplantation of HL60; details: HL60 subcutaneous xenograft, female NOD/scid mice, oral 2.5 to 10 mg/kg once a day for 10 to 12 days
From the text: (Drug Efficacy Test in Cancer-Bearing Mouse Model with Subcutaneous Transplantation of HL60)
The human acute myeloid leukemia cell line HL60 (available from JCRB) was suspended in a mixture of RPMI-1640 culture medium and Matrigel (available from Corning Inc.), and then subcutaneously transplanted into 6-week-old female NOD/scid mice (available from CLEA Japan, Inc.). The test compound was dispersed in a solvent (0.5% aqueous methylcellulose solution), and from the time when tumor engraftment was visually confirmed, the test compound was orally administered to mice at a dose of 2.5 to 10 mg/kg once a day for 10 to 12 days. A solvent administration group to which a 0.5% aqueous methylcellulose solution was administered was provided as a negative control. The tumor diameter was measured over time and the tumor volume was calculated. The tumor volume was calculated by measuring the major axis and the minor axis of the tumor and using the following expression. Tumor volume (mm^3)=[major axis (mm)×minor axis (mm)×minor axis (mm)]/2
T/C (%) was calculated from the average tumor volume of each group by the following expression, and the drug efficacy was evaluated. T/C (%)=(average tumor volume of drug-administered group)/(average tumor volume of solvent-administered group)×100%

SMILES | GI50 [1] | IC50 (recombinant human DHODH) | tumor growth inhibition rate (T/C from tumor volume) (HL60 subcutaneous tumor)
CS(=O)(=O)NC(=O)c1nc(C2CC2)cnc1Nc1cc(F)cc(C2=CCOCC2)c1OCC(F)(F)F | < 100 nM | < 10 nM | –
C[C@H](Oc1c(Nc2nnc(C3CC3)cc2C(=O)O)cccc1C1CCOCC1)C(F)(F)F | > 1000 nM | < 10 nM | –
O=C(O)c1cc(C2CC2)cnc1Nc1cccc(C2CCOCC2)c1OCC(F)(F)F | < 100 nM | < 10 nM | –
CS(=O)(=O)NC(=O)c1cc(C2CC2)cnc1Nc1cc(F)cc(C2CCOCC2)c1OC(F)F | < 100 nM | < 10 nM | –

The next lines start with results.

GI50 [1] | IC50 (recombinant human DHODH) | SMILES | tumor growth inhibition rate (T/C from tumor volume) (HL60 subcutaneous tumor)
< 100 nM | < 10 nM | CCCc1c(Nc2ncc(C3CC3)nc2C(=O)NS(C)(=O)=O)cccc1C1CCOCC1 | –
< 100 nM | < 10 nM | CS(=O)(=O)NC(=O)c1nc(C2CC2)cnc1Nc1cc(F)cc(C2CCOCC2)c1OC(F)F | excellent tumor growth inhibition rate
< 100 nM | < 10 nM | CCCc1c(Nc2ncc(C3CC3)nc2C(=O)NOC)cccc1C1CCOCC1 | –
